The target of the assay is human GnRH receptors (Homo sapiens, UniProt P30968). As to the kind of experiment: 125I-leuprorelin binding inhibition, membrane fraction of CHO cells expressing human GnRH receptors. Conditions: for IC50: read-out: 125I-leuprorelin binding IC50 value (μM) human, Hill plot.

Chains of the proteins cited; added tags and fusions are not shown.
UniProt P30968, whole entry: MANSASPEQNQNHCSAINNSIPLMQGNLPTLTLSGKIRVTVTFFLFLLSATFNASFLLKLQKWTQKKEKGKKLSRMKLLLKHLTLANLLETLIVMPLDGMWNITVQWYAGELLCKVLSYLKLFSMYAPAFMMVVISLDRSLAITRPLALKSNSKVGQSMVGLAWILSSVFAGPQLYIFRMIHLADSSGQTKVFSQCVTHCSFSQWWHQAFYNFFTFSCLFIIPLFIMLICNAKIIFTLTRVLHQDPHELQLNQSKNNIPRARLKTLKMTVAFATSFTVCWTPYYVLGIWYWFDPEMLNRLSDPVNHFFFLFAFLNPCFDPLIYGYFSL

This note sets out measurements from patent US6514988B1, “Condensed-ring thiophene derivatives, their production and use” (Takeda Chemical Industries, Ltd., priority 1994, dated 2003).

In the case of `CCOC(=O)c1cn(Cc2ccccc2OC)c2sc(-c3ccc(OC)cc3)c(C)c2c1=O`, the IC50 – broadly, the concentration that gives 50% inhibition – worked out at 13 µM.

On to `CCOC(=O)c1cn(Cc2ccccc2OC)c2sc(-c3ccc(NC(C)=O)cc3)c(CN(C)Cc3ccccc3)c2c1=O`, for which the half-maximal inhibitory concentration (IC50) worked out at 0.01 µM. Moreover, the “125I-leuprorelin binding inhibitory rate (%) human(20 μM)” value (compound 20 μM) was found to be 107%.
